A549 viability = kills or reduces viability of A549 cells in Nrf2 counter-screen; Potency, µM (series often up to 46 µM), without a hit: at the highest dose activity change, negative = cytotoxicity, usual class: inhibitors; actives 0.16% (n = 390,000); A549 ARE-Fluc cells, CellTiter-Fluor viability, 18-24 h; also: potency is read from the fitted curve at half-maximal effect; % is scaled to controls: 0 for no effect and ±100 for the full control effect
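A549 ARE_Fluc cells in 5% FBS OPTI-MEM were exposed to compounds in concentration-response for 18-24 h at 37 deg C. Viability was read by CellTiter-Fluor fluorescence (Ex 405/Em 525) after 30 min, before the luciferase read.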
Glioma ERSR ind = ER stress response induction in glioma. U87-MG GRP78 promoter luciferase reporter, 16 h. Potency, µM, for the others: at the top dose activation, most hits filed as activators. actives 0.02% (n = 420,000); also: potency is read from the fitted curve at half-maximal effect; series mostly up to about 76 µM; % of control where 0% means no effect; nearly all actives have a fitted effect of over 35% in size
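ERSR induction read as luciferase luminescence (Bright-Glo, 10 min at room temperature) in stably transfected human U87-MG glioma cells exposed to compounds for 16 h, using GRP78 as sensor.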
miR-21 reporter = miR-21 reporter, rising signal | HeLa miR-21 FLuc reporter, luciferase, 48 h | Potency, µM (top dose mostly 38.3 µM), inactives show at the top dose reporter change, positive = more light | 340,000 tested, under 10 active | AID 2288; active = well fitted rising curve with a large enough effect; inconclusive = small, poorly fitted or top-dose-only effect; inactive = no such curve, though single readings can be large or run the other way;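 further: % of control where 0% means no effect; miR-21 action dims this reporter so a rising signal means less miR-21 action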
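HeLa cells stably expressing CMV-driven firefly luciferase with a downstream miR-21 binding sequence, endogenously expressing miR-21, were treated with titrations (up to about 40uM final) for 48 hours at 37 degree Celsius. Luciferase luminescence was read after lysis.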
PTAP TSG101 blk = blocks PTAP/TSG101 interaction to inhibit HIV-1 budding | 340,000 tested, under 10 active | Q99816 | Potency, µM (highest dose often 115 µM), for inactives: at the top dose activity change, negative = inhibition, usual class: inhibitors | AID 493005 | Fluorescence polarization, FITC-PTAP peptide / Tsg101 binding; active = well fitted inhibition curve with a large enough effect in the main read-out, with a control signal flat, not every such curve was filed as active; inconclusive = small, poorly fitted or top-dose-only effect, or effect the other way, or a change in a side signal; inactive = no such curve, though single readings can be large or run the other way; also: potency is read from the fitted curve at half-maximal effect; % of control where 0% means no effect
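Steps: Tsg101 binding domain dispensed (10 uM final), compounds pinned in DMSO, FITC-labeled PTAP-motif peptide added (50 nM final); after 20 min binding at room temperature, polarization measured.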
Nrf2 inh = inhibitors of Nrf2 signaling; A549 ARE-Fluc reporter, luciferase luminescence, 18-24 h; Potency, µM (top dose mostly 46 µM), for inactives: at the top dose activity change, negative = inhibition, actives largely listed as inhibitors; actives 2.1% (n = 360,000); also: potency is read from the fitted curve at half-maximal effect; % is scaled to controls: 0 for no effect and ±100 for the full control effect; nearly all actives have a fitted effect of over 60% in size
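A549 ARE_Fluc cells (5000/well, 5% FBS OPTI-MEM) pre-incubated 2 h, then treated with compounds 18-24 h at 37C/5% CO2 in concentration-response. CellTiter-Fluor viability read first; BugLite luciferase luminescence after 15 min at room temperature gives Nrf2 activity.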
Nrf2 ARE act = Nrf2 pathway activation; AREc32 ARE-luciferase reporter (MCF7-derived line), luminescence, 24 h; Potency, µM (highest dose often 46.1 µM), for the others: top-dose activation, usual class: activators; actives 0.31% (n = 410,000); also: potency is read from the fitted curve at half-maximal effect; % of control where 0% means no effect; nearly all actives have a fitted effect of over 65% in size
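Cells of the AREc32 ARE-luciferase line are plated in OPTI-MEM containing 5% FBS and left overnight at 37 deg C. Compounds are pinned in, incubation continues 24 hr, and firefly luciferase signal is then measured.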
* = called active by the depositor; [ ] = dose if it differs, or a comment. Rows were chosen to be rich in hits. Some 2.1% of all compounds tested hit in one or more screens of this group. Unless noted, calls follow the shape of the dose curve; as a rule, active = well fitted curve in the direction sought with a large enough effect; inconclusive = small, poorly fitted or top-dose-only effect, or another doubt; inactive = no such curve, though single readings can be large; an effect the other way counts as inactive or inconclusive.

For COc1ccccc1C(=O)Nc1ccncc1 the results were A549 viability -1%, Glioma ERSR ind -2%, miR-21 reporter -4%, PTAP TSG101 blk -1%, Nrf2 inh -19% and Nrf2 ARE act -2%[9.22 µM].
`CCCCOC(=O)CSc1nnc(-c2cc(OC)c(OC)c(OC)c2)o1` gave A549 viability -4%, Glioma ERSR ind 13µM*, miR-21 reporter -2%, PTAP TSG101 blk -5%, Nrf2 inh inconclusive and Nrf2 ARE act 0%.
`COc1cccc(C(=O)NCC2Cc3cccc(-c4nc(C)cnc4C)c3O2)c1OC` (configuration not stated) gave Glioma ERSR ind 9%.
CC1CCC(NC(=O)COc2ccc(C(=O)c3ccccc3)cc2)CC1 (configuration not stated) was read as A549 viability 4%, Glioma ERSR ind -2%, miR-21 reporter -3%, PTAP TSG101 blk -5%, Nrf2 inh 18µM* and Nrf2 ARE act 0%.
`COc1ccc(-c2n(CC(=O)OC3CC(C)CCC3C(C)C)c3ccccc3[n+]2C)cc1` (configuration not stated) gave A549 viability inconclusive, Glioma ERSR ind -14%, miR-21 reporter 3%, PTAP TSG101 blk 2%, Nrf2 inh 21µM* and Nrf2 ARE act -2%.
O=C(NCCN1CCOCC1)c1ccc(S(=O)(=O)Nc2ccccc2)cc1 was read as A549 viability 1%, Glioma ERSR ind -1%, PTAP TSG101 blk -3%, Nrf2 inh -11% and Nrf2 ARE act -3%.
Screening Cc1ccc(NS(=O)(=O)c2ccc(C(=O)NCCN3CCOCC3)cc2)cc1 returned A549 viability -2%, Glioma ERSR ind 0%, PTAP TSG101 blk 0%, Nrf2 inh 9.2µM* and Nrf2 ARE act 0%.
Cc1ccc(NS(=O)(=O)c2cccc(C(=O)NCC3CCCO3)c2)cc1 (configuration not stated) was read as A549 viability -1%, Glioma ERSR ind -2%, PTAP TSG101 blk -4%, Nrf2 inh 21µM* and Nrf2 ARE act 5%.
`O=C(NCC1CCCO1)c1cccc(NS(=O)(=O)c2ccccc2)c1` (configuration not stated) gave A549 viability -3%, Glioma ERSR ind -5%, PTAP TSG101 blk 0%, Nrf2 inh 0% and Nrf2 ARE act -1%.
O=C(NCCN1CCOCC1)c1cc(-c2cccs2)on1 was read as A549 viability -2%, Glioma ERSR ind 11µM*, miR-21 reporter -79%, Nrf2 inh inconclusive and Nrf2 ARE act inconclusive.
Screening CCN(CC)c1ccc(-c2nnc(SCC(=O)NCc3ccco3)n2CC)cc1 returned Glioma ERSR ind 0%.
For O=C(NCCc1cn2ccccc2n1)c1cc(COc2ccc3ncccc3c2)on1 the results were A549 viability inconclusive, Glioma ERSR ind -7%, miR-21 reporter inconclusive, PTAP TSG101 blk 0%, Nrf2 inh 16µM* and Nrf2 ARE act 4%.

The last two compounds of the section above are carried over, then new ones follow.
Screening CCN(CC)c1ccc(-c2nnc(SCC(=O)NCc3ccco3)n2CC)cc1 returned Glioma ERSR ind 0%.
For O=C(NCCc1cn2ccccc2n1)c1cc(COc2ccc3ncccc3c2)on1 the results were A549 viability inconclusive, Glioma ERSR ind -7%, miR-21 reporter inconclusive, PTAP TSG101 blk 0%, Nrf2 inh 16µM* and Nrf2 ARE act 4%.
Cc1nn(C)cc1CN1CCOc2ccc(CN3CCC(Oc4cccnc4)CC3)cc2C1 was read as Glioma ERSR ind 1%.
Cn1c(=O)n(C)c2cc(NS(=O)(=O)c3ccc(F)cc3)c(NCc3ccccc3)cc21 was read as A549 viability 3%, Glioma ERSR ind 2%, miR-21 reporter -64%, Nrf2 inh inconclusive and Nrf2 ARE act 13µM*.
`CC(C)c1ccc(S(=O)(=O)Nc2cc3c(cc2NCc2ccccc2)n(C)c(=O)n3C)cc1` gave A549 viability -10%, Glioma ERSR ind -1%, miR-21 reporter -5%, Nrf2 inh 26µM* and Nrf2 ARE act 6%.
Cc1ccc(S(=O)(=O)Nc2cc3c(cc2NCc2ccccc2)n(C)c(=O)n3C)c(C)c1 was read as A549 viability -4%, Glioma ERSR ind 3%, miR-21 reporter -49%, Nrf2 inh 12% and Nrf2 ARE act inconclusive.

From PubChem BioAssay
